Earlier results on 1 substance are cited in patent US9925277B2, “Polynucleotide compositions containing amino acids” (ModernaTX, Inc., priority 2013, dated 2018).

The conditions of this data set: in vivo, iv.

Turning to “penta[3-(1-laurylaminopropionyl)]-triethylenetetramine hydrochloride [Grp 98N12-5]”, the “distribution of the formulation to the liver” value is given as “greater than 90%”.
